miR-122 sensor: miR-122 Renilla sensor signal increase in Huh7, primary screen, miR-122 inhibitor project, cell-based, single point, plate reader | Huh7 miR-122 Renilla luciferase sensor, 48 h; neutral wells = 0, positive control = 100 | activation (reporter increase), % at 12.5 µM | 0.3% of 340,000 active;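 active means mean replicate activation score at least 90 and every replicate individually at or above 90; inconclusive means only one of the two criteria met; inactive means neither criterion met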;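 further: higher luciferase means less miR-122 activity so hits act as miR-122 inhibitors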
esBAF inh: Bmi1 luciferase reporter increase in mESCs, primary screen, esBAF inhibitor project, mouse ES cells, Bmi1 luciferase knock-in, single point; 24 h; 100% = twice the neutral-well signal; reporter increase, % at 12.5 µM; 2% of 350,000 active; in the data active means activation above about 40%; inconclusive means no clear call, values can overlap the other calls;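 further: a rise in the Bmi1 reporter signal indicates esBAF inhibition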
MITF act: activators of MITF-driven TRPM1 promoter reporter, primary screen, cell-based, SK-MEL-5, luciferase, single point; SK-MEL-5 TRPM1-promoter luciferase, 24 h; % of positive control, neutral wells = 0; activation, % at 12.5 µM; 0.75% of 300,000 active;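 active means mean activation of at least 80% with every replicate also reaching 80%; inconclusive means mean reaches 80% but some replicate falls short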
Yeast UUG start: yeast start codon fidelity modulation | S. cerevisiae UUG-firefly luciferase reporter, luminescence/redox ratio | activity score, % at 18.7 µM | hit rate 0.13% among 350,000 | AID 602363;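 active means replicate mean at a twofold rise or more, about +100% in these data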;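 further: firefly luciferase made from a UUG start codon reports start codon fidelity; reporter light over untreated wells divided by growth signal over untreated wells; some hits fall short of that in this replicate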
PglD inh: C. jejuni PglD acetyltransferase inhibitors, primary screen, biochemical, DTNB colorimetric, single point; purified PglD enzyme, DTNB colorimetric CoA detection; AID 602405, 2012; 0.098% of 360,000 active; UDP-N-acetylbacillosamine N-acetyltransferase PglD (Campylobacter jejuni); inhibition, % at 12.5 µM; in the data active means inhibition above about 16%, passing the limit was not always enough; inconclusive means no clear call, values can overlap the other calls
Wnt bcat act: Wnt/beta-catenin pathway activators, primary screen, cell-based, plate reader, single point; 1.2% of 300,000 active; activation, % at 9.35 µM; Wnt/beta-catenin reporter cell assay, activator; AID 743398, 2014; in the data active means activation above about 30%, passing the limit was not always enough; inconclusive means no clear call, values can overlap the other calls
Hits are given with their value; . = inactive; ? = inconclusive; / = not tested or not shown. Rows were chosen to be rich in hits. Some 2.8% of all compounds tested hit in one or more screens of this group.

SMILES	miR-122 sensor	esBAF inh	MITF act	Yeast UUG start	PglD inh	Wnt bcat act
COC(=O)c1cccc(CN2C(=O)C(C)Sc3ccc(C(C)=O)cc32)c1 (stereo unspecified)	.	46	/	.	.	.
CC(=O)c1ccc2c(c1)N(Cc1ccccc1Cl)C(=O)C(C)S2 (stereo unspecified)	.	.	/	.	.	.
COC(=O)c1cccc(CN2C(=O)C(C)Sc3ccc(C)cc32)c1 (stereo unspecified)	.	.	/	.	.	.
COC(=O)c1cccc(CN2C(=O)C(C)Sc3cc(Cl)ccc32)c1 (stereo unspecified)	.	45	/	.	.	.
COCC(=O)Nc1ccc2c(c1)[C@H]1C[C@@H](CC(=O)NCc3ccc(OC)cc3)O[C@H](CO)[C@H]1O2	.	.	/	.	.	/
CCN(CC)S(=O)(=O)c1cc(NS(=O)(=O)c2cccc(Cl)c2)ccc1C	254	/	.	.	.	.
Cc1ccc(-c2nn(-c3ccccc3)cc2/C=N/NC(=O)c2ccc(Br)o2)cc1	.	64	.	.	.	/
Cc1ccc(-c2nnc(SCC(=O)N/N=C/c3ccccc3C(=O)O)n2-c2ccccc2)cc1	/	/	/	/	/	.
O=C(N/N=C/c1ccc(Br)cc1)c1ccc(Br)o1	/	/	103	/	/	56
O=C(N/N=C\c1cn(-c2ccccc2)nc1-c1ccccc1)c1ccc(Br)o1	.	.	.	.	.	.
Cc1nnc(SCC(=O)N/N=C/c2cn(-c3ccccc3)nc2-c2ccccc2)n1-c1ccccc1	.	63	.	.	.	/
O=C(N/N=C/c1cn(-c2ccccc2)nc1-c1ccccc1)c1ccco1	.	44	.	.	.	/
C[C@H](CO)N1C[C@H](C)[C@@H](CN(C)C)Oc2ccc(NC(=O)Nc3ccc4c(c3)OCO4)cc2CC1=O	.	.	/	.	.	/
COc1ccc(C(=O)c2c3ccccc3[n+]([O-])n2CCC(N)=O)cc1	.	47	.	.	.	.
COc1ccc2c(C(=O)c3ccc(C)cc3)n(Cc3ccc(C(N)=O)cc3)[n+]([O-])c2c1	.	101	.	.	.	?
COc1ccc(C(=O)c2c3ccccc3[n+]([O-])n2Cc2ccc(C(N)=O)cc2)cc1	/	.	.	.	.	.
COc1ccc(C(=O)c2c3ccccc3[n+]([O-])n2CCCN)cc1	.	.	.	.	.	.
C[C@H](CO)N1C[C@H](C)[C@H](CN(C)C(=O)C2CCCCC2)Oc2cc(C#CC3CC3)ccc2S1(=O)=O	.	.	/	.	/	/
C[C@@H]1CN([C@@H](C)CO)C(=O)c2cc(NC(=O)Nc3ccccc3)ccc2O[C@@H]1CN(C)Cc1ccc2c(c1)OCO2	.	.	/	.	.	/
O=S(=O)(N[C@H]1CC[C@H](CCn2cc(-c3cccnc3)nn2)O[C@H]1CO)c1ccc(F)cc1	/	.	/	.	.	/
CCOc1ccc(N/C(C)=C/C(=O)c2ccc3c(c2)OCCO3)cc1	/	/	.	/	/	47
CCOc1ccc(N/C(C)=C\C(=O)c2ccc3c(c2)OCCO3)cc1	/	/	.	/	/	36
C[C@@H]1CN([C@H](C)CO)S(=O)(=O)c2ccc(-c3cccnc3)cc2O[C@@H]1CN(C)Cc1ccncc1	.	.	/	.	.	/
Cc1nc(-c2ccc(C(=O)Nc3cccc(F)c3)cc2)cs1	.	.	.	.	.	.
Cc1nc(-c2ccc(C(=O)Nc3ccc(F)cc3)cc2)cs1	.	.	.	/	/	43
COc1ccc(NC(=O)c2ccc(-c3csc(C)n3)cc2)cc1	.	41	/	.	.	.
O=C(C[C@H]1CC[C@H]2[C@@H](COC[C@H](O)CN2Cc2nccs2)O1)NCc1ccccc1Cl	.	.	/	/	.	/
CNC[C@@H]1OCCCC[C@@H](C)Oc2ccc(N(C)C)cc2C(=O)N([C@H](C)CO)C[C@H]1C	.	.	/	.	.	/
Cn1cnc(S(=O)(=O)N2CCCCC2c2cc(C(=O)Nc3ccc(F)c(Cl)c3)no2)c1 (stereo unspecified)	.	45	/	.	.	.
